pIC50: −log10 of the molar value.
Molecular target: T1, rh-integrin α4β7/LPAM-1 (Homo sapiens, UniProt P13612+P26010)
T1 sequence (P13612 34-977 limits assumed): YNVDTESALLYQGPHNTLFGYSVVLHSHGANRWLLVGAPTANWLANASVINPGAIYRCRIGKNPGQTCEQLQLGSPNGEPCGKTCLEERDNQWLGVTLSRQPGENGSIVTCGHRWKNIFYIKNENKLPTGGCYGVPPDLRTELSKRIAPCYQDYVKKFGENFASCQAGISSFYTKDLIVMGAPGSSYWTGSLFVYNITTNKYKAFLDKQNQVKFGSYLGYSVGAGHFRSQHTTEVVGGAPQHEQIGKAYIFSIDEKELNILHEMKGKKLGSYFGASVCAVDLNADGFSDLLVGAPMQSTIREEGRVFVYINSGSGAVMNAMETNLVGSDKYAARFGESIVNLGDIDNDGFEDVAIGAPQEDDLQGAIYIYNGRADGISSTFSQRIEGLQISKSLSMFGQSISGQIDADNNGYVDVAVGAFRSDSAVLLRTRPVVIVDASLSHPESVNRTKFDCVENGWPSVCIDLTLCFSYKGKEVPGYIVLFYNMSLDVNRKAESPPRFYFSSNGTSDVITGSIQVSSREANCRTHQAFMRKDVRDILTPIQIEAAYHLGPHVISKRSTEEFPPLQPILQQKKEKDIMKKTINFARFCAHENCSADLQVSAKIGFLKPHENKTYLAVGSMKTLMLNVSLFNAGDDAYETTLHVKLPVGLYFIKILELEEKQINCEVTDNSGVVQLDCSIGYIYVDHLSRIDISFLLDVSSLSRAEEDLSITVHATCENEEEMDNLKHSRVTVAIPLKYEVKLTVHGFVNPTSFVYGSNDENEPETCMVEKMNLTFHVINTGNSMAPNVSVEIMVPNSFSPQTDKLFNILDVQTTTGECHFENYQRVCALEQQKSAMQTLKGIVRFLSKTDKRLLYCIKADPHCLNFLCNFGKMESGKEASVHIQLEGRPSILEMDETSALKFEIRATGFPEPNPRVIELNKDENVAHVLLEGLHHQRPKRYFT
T1 sequence (P26010 20-723 limits assumed): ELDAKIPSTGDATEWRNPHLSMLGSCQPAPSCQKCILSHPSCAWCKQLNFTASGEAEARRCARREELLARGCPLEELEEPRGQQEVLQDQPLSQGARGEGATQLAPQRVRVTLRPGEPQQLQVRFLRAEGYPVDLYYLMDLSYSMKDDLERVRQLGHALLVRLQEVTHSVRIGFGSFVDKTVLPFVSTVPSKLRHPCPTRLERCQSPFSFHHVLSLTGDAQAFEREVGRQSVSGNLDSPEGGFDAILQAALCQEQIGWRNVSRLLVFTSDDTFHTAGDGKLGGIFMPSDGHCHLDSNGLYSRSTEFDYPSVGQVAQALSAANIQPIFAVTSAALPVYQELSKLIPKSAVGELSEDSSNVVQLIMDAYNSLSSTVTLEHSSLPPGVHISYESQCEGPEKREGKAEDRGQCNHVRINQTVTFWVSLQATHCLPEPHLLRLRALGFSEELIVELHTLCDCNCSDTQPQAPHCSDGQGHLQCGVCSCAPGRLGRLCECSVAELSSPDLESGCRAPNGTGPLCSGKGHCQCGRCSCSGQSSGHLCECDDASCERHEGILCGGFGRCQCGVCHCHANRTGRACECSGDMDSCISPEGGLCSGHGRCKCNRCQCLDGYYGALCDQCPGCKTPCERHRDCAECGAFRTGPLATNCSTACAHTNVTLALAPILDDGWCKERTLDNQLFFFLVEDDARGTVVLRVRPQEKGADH
Test: α4β7-MadCAM Competition ELISA (Example 4)
Type: binding
Conditions: 4 μg/mL α4β7 coated, MAdCAM and peptide mixture, 28° C.
Method: After washing with wash buffer, 200 μL assay buffer was added to each well and incubated for one hour at 28° C. After another wash with wash buffer, 100 μL of a MAdCAM and peptide mixture in assay buffer was added to each well and incubated for one hour at 28° C., followed by washing with wash buffer.

CC(C)C[C@@H]1NC(=O)[C@@H]2CCCN2C(=O)[C@@H]2CSCc3cc(cc(c3)OCCCCCCO/N=C/C(=O)N[C@@H](CCCCN)C(=O)N2)CSC[C@@H](C(N)=O)NC(=O)[C@H](C)NC(=O)[C@@H]2CCCN2C(=O)[C@H](C(C)C)NC(=O)[C@H](CC(=O)O)NC1=O [SEQ ID NO: 59]
pIC50: 5.72

— US20230145835A1, “Modulators of Alpha-4-beta-7 Integrin and MAdCAM” (48HD Biopharma Inc., priority 2021, published 2023)
